The list shows a part of the results, in another mix than the full data. Calls of active or inactive are those of the source.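 Rule for the calls: active = mean inhibition across replicates of 30% or more, whatever share of single replicates reach that level; inconclusive = mean inhibition below 30% while every single replicate reaches 30%; inactive = the rest.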
The molecules below were run against Protein disulfide-isomerase (Homo sapiens) (UniProt P07237) (assay: blockers of PDI-driven insulin aggregation – biochemical, turbidity, single point, plate reader, primary screen (AID 588391;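 note: absorbance from insulin aggregation driven by PDI reduction with DTT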)). Details: A650, 90 min, at 10 µM, active compounds read high.

The chains behind the UniProt entries cited, without tags or fusion partners. Where a name states a change or a piece, a line headed by the entry shows the natural chain unless it says otherwise.
UniProt P07237: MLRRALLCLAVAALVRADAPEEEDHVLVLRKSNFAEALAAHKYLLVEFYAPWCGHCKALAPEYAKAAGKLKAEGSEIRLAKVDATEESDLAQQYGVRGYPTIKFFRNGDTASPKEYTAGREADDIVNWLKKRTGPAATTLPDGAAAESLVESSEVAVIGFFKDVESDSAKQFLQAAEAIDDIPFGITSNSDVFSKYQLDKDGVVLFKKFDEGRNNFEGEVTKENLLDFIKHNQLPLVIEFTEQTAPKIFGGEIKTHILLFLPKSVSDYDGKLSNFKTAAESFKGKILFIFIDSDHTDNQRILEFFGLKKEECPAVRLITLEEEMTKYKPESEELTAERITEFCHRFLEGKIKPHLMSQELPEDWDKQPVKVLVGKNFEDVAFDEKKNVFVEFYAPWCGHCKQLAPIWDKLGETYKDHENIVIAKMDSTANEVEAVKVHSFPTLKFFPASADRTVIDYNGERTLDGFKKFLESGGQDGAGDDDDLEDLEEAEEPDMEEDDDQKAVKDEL

SMILES | inhibition
COC(=O)C1(C)COP(=O)(N2CCCCCC2)OC1 (stereo unspecified) | inactive: 1.12%
CCN(CC)C(=S)SC(NC=O)C(Cl)(Cl)Cl (stereo unspecified) | inactive: 1.37%
O=C(OC1CN2CCC1CC2)c1cccc2[nH]cnc12 (stereo unspecified) | inactive: 0.127%
CC(C)NC(=O)NP(=O)(Oc1ccccc1)Oc1ccccc1 | inactive: 3.93%
O=[N+]([O-])c1cc([N+](=O)[O-])c(-c2ccn[nH]2)s1 | inactive: 1.12%
O=C(O)C(O)c1ccc(N(CCCl)CCCl)cc1 (stereo unspecified) | inactive: 4.69%
CCOC(=O)Nc1ccc([As](=O)(O)O)c(O)c1 | inactive: 3.03%
CC1CCNP(=O)(N(CCCl)CCCl)O1 (stereo unspecified) | inactive: 4.34%
COP(=O)(OC)N1CC1c1ccccc1 (stereo unspecified) | inactive: -2.08%
CCCCOc1ccc(C(=O)NCC2(N3CCCCC3)CCCCC2)cc1OC | inactive: -10.9%
Cc1cc(SC(NC(=O)c2ccccc2)C(Cl)(Cl)Cl)nc(C(C)C)n1 (stereo unspecified) | inactive: -6.78%
CCOC(=O)Nc1cccc([As](=O)(O)O)c1 | inactive: -5.55%
Cc1cc(SC(NC=O)C(Cl)(Cl)Cl)ncn1 (stereo unspecified) | inactive: -3.73%
O=P(Nc1ccccn1)(c1cccc2ccccc12)c1cccc2ccccc12 | inactive: 1.82%
O=[N+]([O-])c1ccc(Nc2ccc(Oc3ccc([N+](=O)[O-])cc3[N+](=O)[O-])cc2)c([N+](=O)[O-])c1 | inactive: 0.088%
COP1(=S)c2c(C)nn(CCC#N)c2N=C(c2ccc(F)cc2)N1C (stereo unspecified) | inactive: 2.94%
O=C(O)C(=O)c1ccc(N(CCCl)CCCl)cc1 | inactive: 0.329%
O=C(COc1ccccc1)OC1CN2CCC1CC2 (stereo unspecified) | inactive: 6.07%
O=C(Nc1ccncc1[N+](=O)[O-])c1ccc([N+](=O)[O-])cc1[N+](=O)[O-] | inactive: -8.05%
O=C(OC1CN2CCC1CC2)c1cccc([N+](=O)[O-])c1 (stereo unspecified) | inactive: 9.03%
CSc1ccc(Nc2c([N+](=O)[O-])cc([N+](=O)[O-])cc2[N+](=O)[O-])cc1 | inactive: -0.555%
CCOC(=O)c1ccc(NC(=O)C(C)(CCl)SC)cc1 (stereo unspecified) | inactive: -5.57%
CCC(C)N(CC(C)C)C(=S)SC(NC(C)=O)C(Cl)(Cl)Cl (stereo unspecified) | inactive: -5.32%
CCC1=CC2Cc3nc4ccc(Cl)cc4c(N)c3C(C1)C2 (stereo unspecified) | inactive: -10.4%

SMILES | inhibition
O=P1(Nc2ccccn2)COc2ccccc2OC1 | inactive: 13.4%
CCOP(=O)(NC(=NC(C)c1ccccc1)NC(C)c1ccccc1)OCC (stereo unspecified) | inactive: 8.12%
CN(CCCl)Cc1cc(Cl)c(NC2=NCCN2)c(Cl)c1 | inactive: -0.561%
CCOP(=O)(Nc1ccc(C)cn1)OCC | inactive: 9.04%
Clc1n[nH]nc1-c1nn[nH][15n]1 | inactive: 2.57%
O=P1(N(CCCl)CCCl)NCCC(C(F)(F)F)O1 (stereo unspecified) | inactive: -4.9%
CC(C)(C)C(=O)NC(Sc1ncccn1)C(Cl)(Cl)Cl (stereo unspecified) | inactive: -3.06%
COc1ccccc1CNC(=O)COC(=O)C(O)(c1ccccc1)c1ccccc1 | inactive: -7.68%
CN(C(=O)Cc1ccc(Cl)c(Cl)c1)[C@@H]1CCCC[C@H]1N1CCCC1 | inactive: -3.87%
CC(C)/C=N\N=C(\N)N[N+](=O)[O-] | inactive: -0.638%
CC1(CBr)Cn2c(nc3ccccc3c2=O)S1 (stereo unspecified) | inactive: 1.86%
Cc1nn(-c2ccccc2)c2c1P(=O)(N1CCOCC1)N(C)C(c1ccccc1)=N2 (stereo unspecified) | inactive: 6.47%
Cc1ccc(C(=O)OC2CN3CCC2CC3)cc1 (stereo unspecified) | inactive: 6.81%
CC1CCC(C(C)C)C(OP(=O)(Nc2ccccn2)c2ccccc2)C1 (stereo unspecified) | inactive: -4.3%
CN(C)C1(CNC(=O)c2ccc(S(C)(=O)=O)cc2)CCCCC1 | inactive: -3.93%
O=C(/C=C/c1ccccc1)OC1CN2CCC1CC2 (stereo unspecified) | inactive: -0.546%
CCCC1OP(=O)(Nc2ccccc2)OCC1CC (stereo unspecified) | inactive: -0.033%
O=P1(Nc2ncccn2)COc2ccccc2OC1 | inactive: -8.36%
Nc1cccc([As](=O)(O)c2ccccc2)c1 | inactive: -0.659%
NS(=O)(=O)c1cccc(NC(=O)COC(=O)C(O)(c2ccccc2)c2ccccc2)c1 | inactive: -6.52%
O=P1(Nc2ccc(Br)cn2)COc2ccccc2OC1 | inactive: 5.49%
Cc1ccc(OCC(=O)OC2CN3CCC2CC3)cc1 (stereo unspecified) | inactive: 2.94%
O=[As](O)(c1cccs1)c1cccs1 | inactive: 3.31%
CCOP1(=S)c2c(C)nn(CCC#N)c2N=C(c2ccccc2F)N1C (stereo unspecified) | inactive: -3.22%

SMILES | inhibition
O=P(Nc1nccs1)(c1ccccc1)c1nc2ccccc2s1 (stereo unspecified) | inactive: 0.909%
O=P(Nc1nccs1)(Oc1ccccc1)Oc1ccccc1 | inactive: -1.9%
CS(=O)(=O)c1cc([N+](=O)[O-])c2no[n+]([O-])c2c1 | inactive: -2.66%
O=C(O)COc1ccc([As](=O)(O)O)cc1[N+](=O)[O-] | inactive: -5.63%
Nc1ccccc1[As](=O)(O)c1ccccc1 | inactive: -0.165%
NC(=O)Nc1ccc([As](=O)(O)O)cc1 | inactive: 0.713%
N#CCCN(C(=O)COC(=O)C(O)(c1ccccc1)c1ccccc1)c1ccc(F)cc1 | inactive: -2.81%
CCOP1(=S)c2c(C)nn(CCC#N)c2N=C(c2ccc(F)cc2)N1C (stereo unspecified) | inactive: 2.01%
CN(C(=O)Cc1ccccc1)[C@@H]1CC[C@]2(CCCO2)C[C@H]1N1CCCC1 | inactive: -5.03%
CN(C)C(=O)c1cc([N+](=O)[O-])cc2c1-c1c(cc([N+](=O)[O-])cc1[N+](=O)[O-])C2=O | inactive: -11.7%
O=[N+]([O-])c1ccc2c(c1)nnn2O | inactive: 0.966%
CN(C(=O)Cc1ccc(Cl)c(Cl)c1)[C@H]1CC[C@@]2(CCCO2)C[C@@H]1N1CCCC1 | inactive: 2.43%
O=C(OC1CN2CCC1CC2)c1ccc(Cl)cc1 (stereo unspecified) | inactive: -13.4%
COc1cc(C(=O)NCC2(N3CCOCC3)CCCCC2)cc(Cl)c1OC(C)C | inactive: 3.11%
O=[As](O)(O)c1cccnc1 | inactive: -5.22%
CS(=O)(=O)c1ccc(Cl)c(NC(=O)COC(=O)C(O)(c2ccccc2)c2ccccc2)c1 | inactive: -0.032%
O=[As](O)(c1cccc(O)c1)c1cccc(O)c1 | inactive: -7.95%
Cc1cccc(OCC(=O)OC2CN3CCC2CC3)c1 (stereo unspecified) | inactive: 7.97%
Cc1ccc(NCCc2c([N+](=O)[O-])cc([N+](=O)[O-])cc2[N+](=O)[O-])cc1 | inactive: -0.872%
Nc1cccc2c([As](=O)(O)O)cccc12 | inactive: -1.35%
CCCOP(=S)(Nc1nc(N)cc(=O)[nH]1)OCCC | inactive: -6.4%
COc1cc(C2NCCC3(OCCO3)C2(C)C)cc(OC)c1OC (stereo unspecified) | inactive: -1.86%
CCOP(=O)(Nc1cccc2ccccc12)OCC | inactive: -6.19%

Source: PubChem BioAssay AID588391 (Broad Institute, 2011)
